Test results taken from ChEMBL document CHEMBL3232856, “Endomorphin analogues with mixed μ-opioid (MOP) receptor agonism/δ-opioid (DOP) receptor antagonism and lacking β-arrestin2 recruitment activity” (Bioorg Med Chem, 2014).

Protein sequences, listed by entry. Tags and fused reporters are not part of them. Lines headed by an entry give the natural chain unless they say otherwise; changes in a name come on top.
UniProt P41143, whole entry: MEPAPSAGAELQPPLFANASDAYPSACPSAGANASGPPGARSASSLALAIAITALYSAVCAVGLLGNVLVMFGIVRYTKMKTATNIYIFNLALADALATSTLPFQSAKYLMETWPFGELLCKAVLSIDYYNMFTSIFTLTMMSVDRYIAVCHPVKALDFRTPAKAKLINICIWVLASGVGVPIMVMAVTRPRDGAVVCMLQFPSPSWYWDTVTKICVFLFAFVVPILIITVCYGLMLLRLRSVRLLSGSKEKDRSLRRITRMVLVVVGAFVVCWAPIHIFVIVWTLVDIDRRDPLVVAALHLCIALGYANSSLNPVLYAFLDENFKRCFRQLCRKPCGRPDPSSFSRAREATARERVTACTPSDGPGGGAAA
UniProt P35372, whole entry: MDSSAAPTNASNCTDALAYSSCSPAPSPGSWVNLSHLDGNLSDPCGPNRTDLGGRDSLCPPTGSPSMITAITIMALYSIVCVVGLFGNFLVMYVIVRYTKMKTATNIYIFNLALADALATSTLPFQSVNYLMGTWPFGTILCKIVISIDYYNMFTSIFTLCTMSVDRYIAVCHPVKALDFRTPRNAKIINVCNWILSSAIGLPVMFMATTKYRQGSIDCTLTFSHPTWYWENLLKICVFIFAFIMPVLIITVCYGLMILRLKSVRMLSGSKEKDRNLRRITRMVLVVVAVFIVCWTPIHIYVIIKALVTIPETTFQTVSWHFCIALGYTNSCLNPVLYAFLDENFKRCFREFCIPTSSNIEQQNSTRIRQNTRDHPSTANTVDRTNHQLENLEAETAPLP
UniProt P41145: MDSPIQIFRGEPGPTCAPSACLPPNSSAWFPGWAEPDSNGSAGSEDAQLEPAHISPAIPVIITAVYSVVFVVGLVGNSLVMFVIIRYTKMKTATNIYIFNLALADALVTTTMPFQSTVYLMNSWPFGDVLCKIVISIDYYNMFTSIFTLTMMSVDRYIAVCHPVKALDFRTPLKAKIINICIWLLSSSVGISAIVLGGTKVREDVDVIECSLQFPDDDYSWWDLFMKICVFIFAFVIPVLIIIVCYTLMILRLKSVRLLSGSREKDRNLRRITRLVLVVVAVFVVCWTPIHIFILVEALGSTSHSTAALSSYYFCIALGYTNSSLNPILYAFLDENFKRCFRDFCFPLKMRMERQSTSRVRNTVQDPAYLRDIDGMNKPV

Key:
[1] = target: T1, Delta-type opioid receptor (Homo sapiens, UniProt P41143); conditions: HEK293, at 100 µM
Mu-type opioid receptor [2] = target: T2, Mu-type opioid receptor (Homo sapiens, UniProt P35372); conditions: HEK293, at 1 µM
Mu-type opioid receptor [3] = target: T2, Mu-type opioid receptor; conditions: HEK293, at 100 µM
[4] = target: T1, Delta-type opioid receptor; conditions: HEK293, at 100 µM; remark: listed apart in the source
[5] = target: T1, Delta-type opioid receptor; conditions: HEK293, at 0.1 to 10 µM
[6] = target: Kappa-type opioid receptor (Homo sapiens, UniProt P41145); conditions: HEK293, at 0.1 to 10 µM

Cc1cccc(C)c1C[C@H](NC(=O)[C@@H]1CCCN1C(=O)[C@@H](N)Cc1c(C)cc(O)cc1C)C(N)=O
inhibition [1]: inactive
inhibition (Mu-type opioid receptor [2]): Active
inhibition (Mu-type opioid receptor [3]): inactive
inhibition [4]: inactive
inhibition [5]: inactive
inhibition [6]: inactive

Cc1cc(O)cc(C)c1C[C@H](N)C(=O)N1CCC[C@H]1C(=O)N[C@@H](Cc1cccc2ccccc12)C(N)=O
inhibition [1]: inactive
inhibition (Mu-type opioid receptor [2]): Active
inhibition (Mu-type opioid receptor [3]): Active
inhibition [4]: 93.2%
inhibition [5]: inactive
inhibition [6]: inactive

Activity calls are given as the source filed them. No cut-off for these calls is given here.
